One test concerns the target SOS1 protein (Homo sapiens, UniProt Q07889). The test can be described thus: SOS1 degradation test (Western blot) in NCI-H358 cells. To be noted: maximum SOS1 degradation, NCI-H358 (KRAS G12C) cells, 24 h, 37 °C. How it is done: Test Example 2: SOS1 Degradation Test
The degradation of SOS1 by the compound was investigated on KRAS G12C mutant human non-small cell lung cancer cells NCI-H358 (ATCC or Chinese Academy of Sciences stem cell bank), KRAS G12D mutant human lung cancer cells A-427, KRAS G12V mutant human colorectal adenocarcinoma cells SW-620 and KRAS G13D mutant human colorectal adenocarcinoma epithelial cells DLD-1 (ATCC). Specific methods were as follows:
0.95 mL of cells was paved in each well of the 24-well cell culture plate to make the cell density reach 5×10^5 cells/well; the cell plates were placed in a 5% CO2 incubator and culture at 37 °C overnight. Then 50 μL of a diluted compound solution was added to the corresponding wells paved with cells, so that the final concentration of the compound was in the range of 0.03-3000 nM. The final concentration of DMSO is 0.25%. The administered cell plates were cultured in a 5% CO2 incubator at 37 °C for 24 h. After being removed from the 24 wells, the cell culture solution was washed twice with 1×PBS. 180 μL of an RIPA (strong) lysing buffer (Beyotime, P0013B) was added to NCI-H358 cells attached to the bottom of the cell culture plate and supplemented with 1 mM benzyl sulfonyl fluoride, a protease inhibitor mixture (Beyotime, P1008) and a protease phosphatase inhibitor mixture (Beyont, P1045) for lysis. After standing on ice for 30 min, the protein lysis buffer in each well was transferred to a 1.5 mL centrifuge tube and centrifuged at 15000 g and 4 °C for 20 min. The centrifuged cell lysate supernatant was cryopreserved at −80 °C for testing and used to test the degradation level of the SOS1 protein by a WB method. The total protein concentration in the cell lysis supernatant was determined using a BCA Protein Assay Kit (Tiangen, PA115-02).
The concentration of total protein in the cell lysate was determined by BCA, adjusted to 0.5 μg/μL with PBS and 5×SDS-PAGE protein loading buffer (Beyotime, P0015L), placed in a 100 °C water bath for 15 min, then placed in an ice bath on ice for 5 min, centrifuged at 14000 g and 4 °C for 1 min, mixed well as a loading sample of WB. Protein electrophoresis was performed with a precast gel (Kaigene, KGMG010W15), with a loading volume of 10 μL (total protein 5 μg). Constant voltage electrophoresis was carried out at 120 V for 55 min after Tris-MOPS-SDS electrophoresis solution (Adamas, P1598253). After electrophoresis, the protein on the gel strip was transferred to PVDF membrane at constant current 250 mA for 65 min. After transmembrane transfer, the membrane was incubated at room temperature for 30 min in 1×QuickBlock blocking buffer (Beyotime, P0235). After blocking, the PVDF membranes were incubated with an SOS1 primary antibody (Abcam, ab140621) overnight at 4 °C and washed with TBST buffer (2.4 g Tris, 8.8 g NaCl, 1.5 mL Tween 20, adjusted to pH 7.4, diluted to 1 L) for 30 min (10 min/time). The secondary antibody (Abcam, ab205718) was incubated at room temperature for 2 h, the membrane was washed with TBST buffer for 30 min (10 min/time), and finally incubated with Clarity Western ECL Substrate (BIO-RAD, 170-5061) for 5 min to develop luminescence. Chromogenesis and protein mapping were performed by chemiluminescence imaging system (Qixiang, ChemiScope 6200 Touch). The protein chromatogram was analyzed for gray value by Qinxiang chemiluminescence analysis software. The following formula is used: gray level correction value=(target protein gray level value/corresponding internal reference gray level value)×103 to calculate the gray level correction value of each sample. Then the degradation rate was calculated by comparing with the gray level correction value of the control group. Further, the DC50 and Dmax values of the compound were obtained by non-linear curve fitting with logarithmic concentration versus inhibition ratio through GraphPad Prism 8.
(In western blotting, separated proteins are transferred to a membrane and probed.)

Sequences of proteins named here, by UniProt entry; tags and fusion partners are left off. A change or cut given only in a name is not applied to a line headed by its entry.
UniProt Q07889, whole entry: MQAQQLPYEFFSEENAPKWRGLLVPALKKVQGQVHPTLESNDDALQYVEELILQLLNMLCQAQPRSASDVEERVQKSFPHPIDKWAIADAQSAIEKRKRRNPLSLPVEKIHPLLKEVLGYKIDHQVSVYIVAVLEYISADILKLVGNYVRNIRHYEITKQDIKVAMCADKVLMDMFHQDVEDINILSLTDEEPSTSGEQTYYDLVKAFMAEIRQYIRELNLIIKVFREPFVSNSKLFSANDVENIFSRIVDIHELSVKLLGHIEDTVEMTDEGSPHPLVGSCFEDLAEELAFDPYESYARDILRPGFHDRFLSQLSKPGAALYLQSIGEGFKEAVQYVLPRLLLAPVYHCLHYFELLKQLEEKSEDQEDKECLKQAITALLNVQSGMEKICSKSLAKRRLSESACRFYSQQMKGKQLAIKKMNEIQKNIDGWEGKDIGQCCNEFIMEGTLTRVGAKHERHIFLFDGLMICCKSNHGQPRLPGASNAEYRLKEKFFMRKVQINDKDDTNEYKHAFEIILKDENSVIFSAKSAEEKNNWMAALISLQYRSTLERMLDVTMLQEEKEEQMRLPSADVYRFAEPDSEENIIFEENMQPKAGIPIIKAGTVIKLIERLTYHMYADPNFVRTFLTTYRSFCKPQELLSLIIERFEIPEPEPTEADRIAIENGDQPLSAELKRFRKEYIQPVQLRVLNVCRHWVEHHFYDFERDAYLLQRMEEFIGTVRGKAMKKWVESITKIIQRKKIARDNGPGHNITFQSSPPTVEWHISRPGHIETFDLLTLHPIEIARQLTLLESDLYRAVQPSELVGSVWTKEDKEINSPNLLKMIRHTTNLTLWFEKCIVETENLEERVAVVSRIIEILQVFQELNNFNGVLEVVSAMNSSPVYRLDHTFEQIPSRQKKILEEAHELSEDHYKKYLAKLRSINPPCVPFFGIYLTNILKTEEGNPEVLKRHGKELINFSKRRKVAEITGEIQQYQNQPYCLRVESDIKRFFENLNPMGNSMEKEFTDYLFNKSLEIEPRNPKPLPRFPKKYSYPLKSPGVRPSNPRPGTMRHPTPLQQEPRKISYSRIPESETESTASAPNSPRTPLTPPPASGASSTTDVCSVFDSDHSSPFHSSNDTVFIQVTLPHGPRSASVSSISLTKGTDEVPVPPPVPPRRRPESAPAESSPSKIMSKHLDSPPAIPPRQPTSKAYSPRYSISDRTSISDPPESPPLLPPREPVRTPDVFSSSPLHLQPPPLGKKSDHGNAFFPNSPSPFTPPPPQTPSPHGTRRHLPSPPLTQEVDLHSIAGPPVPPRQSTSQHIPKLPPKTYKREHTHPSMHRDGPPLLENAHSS

The target of another test is KRAS-G12C/SOS1 (Homo sapiens, UniProt Q07889). Nature of the test: KRAS-G12C/SOS1 binding assay (HTRF, competitive inhibition). As to conditions: read-out: KRAS G12C:SOS1 IC50, 10 μM GTP, 0.5% DMSO, 3 h under ice. An excerpt:
Test Example 1: KRAS-G12C/SOS1 Binding Assay
The following method was used to determine the extent of inhibition of a KRAS-G12C/SOS1 binding by the preferred compound of the present invention under in vitro conditions. This method uses the KRAS-G12C/SOS1 Binding Assay Kit (Cisbio, 63ADK000CB16PEG) to determine the competitive inhibition of the KRAS-G12C/SOS1 binding by a homogeneous time-resolved fluorescence technique (HTRF) for the preferred compound.
The experimental procedure was as follows (refer to the package insert of the kit for a detailed method): first the compound in the present invention was dissolved in DMSO at a concentration of 20 mM, and diluted with a buffer in the kit by isogradient dilution so that the final concentration of the test compound in the reaction system ranged from 10000 nM to 0.04 nM, and the final concentration of DMSO was 0.5%. 2 μL of the compound was incubated with 4 μL 1×Tag1-SOS1, 4 μL 1×Tag2-KRAS-G12C (containing 10 μM guanosine triphosphate, GTP) for 15 min at 25 °C, then 5 μL 1×Anti-Tag1-Tb3+ and 5 μL 1×Anti-Tag2-XL665 were added into the reaction system for incubation for 3 h under ice. After the incubation, the fluorescence intensity of each well at an excitation wavelength of 337 nm was measured in an HTRF mode on a microplate reader EnVision (PerkinElmer, 2105) and the fluorescence intensity of each well at emission wavelengths of 620 nm and 665 nm was read. The Raio value was calculated using a Formula Ratio=(665 nm/620 nm)×104. The inhibition rate of the compound at each concentration was calculated by comparing with the fluorescence intensity ratio of the control group, and then the IC50 value of the compound was obtained by nonlinear curve fitting with logarithmic concentration-inhibition rate using GraphPad Prism 8, as shown in Table 1.

Here are results for ten compounds from patent US20260382730A1, “SOS1 PROTEIN DEGRADATION AGENT AND USE THEREOF” (published 2026).

For `Cc1ccc(C(=O)N2CCC3(CCC(CN4CCN(C(=O)[C@H]5CC[C@H](c6cc7c(N[C@H](C)c8cccc9c8CCS9(=O)=O)nnc(C)c7cn6)CC5)CC4)CC3)CC2)cc1N1CCC(=O)NC1=O`, the “NCI-H358 (G12C) Dmax” value at SOS1 protein is listed as “B (50≤Dmax(%)<80)”. Also, the IC50 – broadly, the midpoint of a concentration-inhibition curve – on KRAS-G12C/SOS1 is < 0.015 µM.

On to `Cc1ccc(C(=O)N2CCC3(CCC(CN4CCC(C(=O)N5CCN(c6cc7c(N[C@H](C)c8cccc(C(F)F)c8C)nnc(C)c7cn6)CC5)CC4)CC3)CC2)cc1N1CCC(=O)NC1=O`, for which, at SOS1 protein, the “NCI-H358 (G12C) Dmax” value is on record as “A (80≤Dmax(%)≤100)”. At KRAS-G12C/SOS1, the half-inhibitory concentration (IC50) lay in the range of 0.015 to 0.03 µM.

On to `Cc1c(C#N)cccc1[C@@H](C)Nc1nnc(C)c2cnc(N3CCN(C(=O)C4CCN(CC5CCC6(CC5)CCN(C(=O)c5ccc7c(c5)C(=O)N(C5CCC(=O)NC5=O)C7=O)CC6)CC4)CC3)cc12` (some centres unmarked), for which the “NCI-H358 (G12C) Dmax” value on SOS1 protein is reported as “B (50≤Dmax(%)<80)”. Also, the IC50 at KRAS-G12C/SOS1 was < 0.015 µM.

For `COc1ccc(C(=O)N2CCC3(CCC(CN4CCN(C(=O)[C@H]5CC[C@H](c6cc7c(N[C@H](C)c8cccc(C#N)c8C)nnc(C)c7cn6)CC5)CC4)CC3)CC2)cc1N1CCC(=O)NC1=O`, at SOS1 protein, the “NCI-H358 (G12C) Dmax” value is “D (Dmax(%)<30)”. Moreover, on KRAS-G12C/SOS1, the half-inhibitory concentration (IC50) is 0.05 to 0.1 µM.

With `Cc1c(C#N)cccc1[C@@H](C)Nc1nnc(C)c2cnc(C3=CCC(C(=O)N4CCC(CCOCC5CCN(C(=O)c6ccc(Cl)c(N7CCC(=O)NC7=O)c6)CC5)CC4)CC3)cc12` (some centres unmarked), the “NCI-H358 (G12C) Dmax” value on SOS1 protein was “D (Dmax(%)<30)”. Moreover, the IC50 on KRAS-G12C/SOS1 lay within 0.1 to 1 µM.

For the compound `Cc1ccc(C(=O)N2CCC3(CCN(CC4CCN(C(=O)N5CCN(c6cc7c(N[C@H](C)c8cccc(C#N)c8C)nnc(C)c7cn6)CC5)CC4)CC3)CC2)cc1N1CCC(=O)NC1=O`, the “NCI-H358 (G12C) Dmax” value at SOS1 protein is on record as “B (50≤Dmax(%)<80)”. For the same compound, the IC50 at KRAS-G12C/SOS1 fell in the range of 0.015 to 0.03 µM.

As for `Cc1ccc(C(=O)N2CCC3(CCC(CCN4CCC(C(=O)N5CCN(c6cc7c(N[C@H](C)c8cccc(C#N)c8C)nnc(C)c7cn6)CC5)CC4)CC3)CC2)cc1N1CCC(=O)NC1=O`, at SOS1 protein, the “NCI-H358 (G12C) Dmax” value is reported as “A (80≤Dmax(%)≤100)”. Also, on KRAS-G12C/SOS1, the IC50 fell in the range of 0.03 to 0.05 µM.

In the case of `Cc1c(C#N)cccc1[C@@H](C)Nc1nnc(C)c2cnc(N3CCN(C(=O)C4CCN(CCCCC5CCN(C(=O)c6ccc(Cl)c(N7CCC(=O)NC7=O)c6)CC5)CC4)CC3)cc12`, the “NCI-H358 (G12C) Dmax” value on SOS1 protein was “A (80≤Dmax(%)≤100)”. Moreover, on KRAS-G12C/SOS1, the IC50 lay in the range of 0.015 to 0.03 µM.

In the case of `Cc1c(C#N)cccc1[C@@H](C)Nc1nnc(C)c2cnc(N3CCN(C(=O)C4CCN(CCCCN5CCN(C(=O)c6ccc(Cl)c(N7CCC(=O)NC7=O)c6)CC5)CC4)CC3)cc12`, the “NCI-H358 (G12C) Dmax” value at SOS1 protein is listed as “C (30≤Dmax (%)<50)”. Moreover, the IC50 at KRAS-G12C/SOS1 was < 0.015 µM.

For the compound `COc1ccc(C(=O)N2CCC3(CCC(CN4CCC(C(=O)N5CCN(c6cc7c(N[C@H](C)c8cccc(C#N)c8C)nnc(C)c7cn6)CC5)CC4)CC3)CC2)cc1N1CCC(=O)NC1=O`, the “NCI-H358 (G12C) Dmax” value at SOS1 protein was “A (80≤Dmax(%)≤100)”. In addition, the IC50 at KRAS-G12C/SOS1 was 0.1 to 1 µM.
